A value given as a limit tells only on which side of the number the result lay.

By UniProt entry, the sequences of proteins in these tests, tags left out.
UniProt O43614, whole entry F346A: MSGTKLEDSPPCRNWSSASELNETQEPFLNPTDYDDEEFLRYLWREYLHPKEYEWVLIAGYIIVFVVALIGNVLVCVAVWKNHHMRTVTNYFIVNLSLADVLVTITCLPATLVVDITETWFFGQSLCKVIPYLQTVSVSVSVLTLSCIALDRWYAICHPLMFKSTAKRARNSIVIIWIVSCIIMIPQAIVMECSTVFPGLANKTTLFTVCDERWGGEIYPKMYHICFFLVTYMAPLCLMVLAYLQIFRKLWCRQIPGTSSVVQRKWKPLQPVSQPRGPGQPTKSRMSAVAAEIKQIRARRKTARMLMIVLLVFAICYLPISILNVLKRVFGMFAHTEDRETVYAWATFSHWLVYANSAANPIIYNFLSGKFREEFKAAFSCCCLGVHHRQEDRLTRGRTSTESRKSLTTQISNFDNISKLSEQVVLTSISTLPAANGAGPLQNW
UniProt O43614, whole entry V114A: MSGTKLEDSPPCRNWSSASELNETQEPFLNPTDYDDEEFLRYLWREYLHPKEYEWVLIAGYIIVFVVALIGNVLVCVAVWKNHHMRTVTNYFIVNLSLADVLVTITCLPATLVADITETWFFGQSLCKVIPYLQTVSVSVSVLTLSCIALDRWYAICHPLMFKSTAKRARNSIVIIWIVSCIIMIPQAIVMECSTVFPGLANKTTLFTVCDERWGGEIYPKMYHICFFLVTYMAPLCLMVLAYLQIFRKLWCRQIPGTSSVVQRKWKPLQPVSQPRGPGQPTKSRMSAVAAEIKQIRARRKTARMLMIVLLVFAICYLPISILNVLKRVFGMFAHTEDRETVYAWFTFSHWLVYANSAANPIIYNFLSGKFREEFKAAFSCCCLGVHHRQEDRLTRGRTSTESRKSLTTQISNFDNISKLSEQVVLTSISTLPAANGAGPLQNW
UniProt O43614, whole entry: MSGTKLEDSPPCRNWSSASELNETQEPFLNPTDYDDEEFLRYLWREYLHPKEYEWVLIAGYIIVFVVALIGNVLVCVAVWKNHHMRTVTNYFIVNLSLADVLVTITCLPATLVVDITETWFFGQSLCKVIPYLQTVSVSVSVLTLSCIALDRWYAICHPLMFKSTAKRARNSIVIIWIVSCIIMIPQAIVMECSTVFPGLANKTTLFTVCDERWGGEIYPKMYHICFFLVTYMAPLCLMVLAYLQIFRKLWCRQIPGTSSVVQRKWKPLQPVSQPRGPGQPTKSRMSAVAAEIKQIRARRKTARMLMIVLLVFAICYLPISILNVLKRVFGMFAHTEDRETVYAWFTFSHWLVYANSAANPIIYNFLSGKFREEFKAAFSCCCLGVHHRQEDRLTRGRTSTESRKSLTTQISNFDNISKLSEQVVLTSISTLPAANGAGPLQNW
UniProt O43614, whole entry V353A: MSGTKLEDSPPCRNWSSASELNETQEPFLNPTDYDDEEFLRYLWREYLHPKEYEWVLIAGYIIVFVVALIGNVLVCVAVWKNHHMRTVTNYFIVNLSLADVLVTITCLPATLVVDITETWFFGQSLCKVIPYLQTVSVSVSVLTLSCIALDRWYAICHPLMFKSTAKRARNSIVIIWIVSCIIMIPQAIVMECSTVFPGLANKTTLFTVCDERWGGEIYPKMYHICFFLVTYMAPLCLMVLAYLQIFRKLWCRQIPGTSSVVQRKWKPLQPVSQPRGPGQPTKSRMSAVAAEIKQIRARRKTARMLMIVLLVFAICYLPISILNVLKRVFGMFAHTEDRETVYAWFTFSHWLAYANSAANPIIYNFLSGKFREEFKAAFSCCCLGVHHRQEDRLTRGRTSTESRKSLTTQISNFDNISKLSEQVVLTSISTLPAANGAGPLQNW
UniProt O43614, whole entry Y317A: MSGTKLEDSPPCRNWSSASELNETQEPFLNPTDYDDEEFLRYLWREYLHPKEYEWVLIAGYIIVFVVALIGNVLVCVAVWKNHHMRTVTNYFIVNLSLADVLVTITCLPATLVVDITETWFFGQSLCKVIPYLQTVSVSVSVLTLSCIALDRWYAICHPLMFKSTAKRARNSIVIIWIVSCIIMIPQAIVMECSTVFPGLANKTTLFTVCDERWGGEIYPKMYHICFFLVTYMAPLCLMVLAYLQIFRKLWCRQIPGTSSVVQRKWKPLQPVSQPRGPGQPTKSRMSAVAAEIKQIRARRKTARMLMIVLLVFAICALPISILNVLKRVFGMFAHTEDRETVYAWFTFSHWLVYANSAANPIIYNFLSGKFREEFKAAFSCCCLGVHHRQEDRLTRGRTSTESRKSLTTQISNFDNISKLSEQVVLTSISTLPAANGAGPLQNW
UniProt O43614, whole entry Q187A: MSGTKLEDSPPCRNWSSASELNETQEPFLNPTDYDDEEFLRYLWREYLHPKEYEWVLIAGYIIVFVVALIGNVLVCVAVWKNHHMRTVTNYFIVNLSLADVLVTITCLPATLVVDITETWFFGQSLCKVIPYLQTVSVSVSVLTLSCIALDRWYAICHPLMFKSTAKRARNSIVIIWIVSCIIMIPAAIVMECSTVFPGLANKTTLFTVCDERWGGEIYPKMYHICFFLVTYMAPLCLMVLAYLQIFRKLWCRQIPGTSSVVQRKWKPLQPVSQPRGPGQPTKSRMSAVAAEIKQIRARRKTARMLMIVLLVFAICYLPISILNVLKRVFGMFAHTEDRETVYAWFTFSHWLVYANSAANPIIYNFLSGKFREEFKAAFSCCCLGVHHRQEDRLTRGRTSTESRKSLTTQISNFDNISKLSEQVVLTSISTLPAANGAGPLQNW
UniProt O43614, whole entry Q134A: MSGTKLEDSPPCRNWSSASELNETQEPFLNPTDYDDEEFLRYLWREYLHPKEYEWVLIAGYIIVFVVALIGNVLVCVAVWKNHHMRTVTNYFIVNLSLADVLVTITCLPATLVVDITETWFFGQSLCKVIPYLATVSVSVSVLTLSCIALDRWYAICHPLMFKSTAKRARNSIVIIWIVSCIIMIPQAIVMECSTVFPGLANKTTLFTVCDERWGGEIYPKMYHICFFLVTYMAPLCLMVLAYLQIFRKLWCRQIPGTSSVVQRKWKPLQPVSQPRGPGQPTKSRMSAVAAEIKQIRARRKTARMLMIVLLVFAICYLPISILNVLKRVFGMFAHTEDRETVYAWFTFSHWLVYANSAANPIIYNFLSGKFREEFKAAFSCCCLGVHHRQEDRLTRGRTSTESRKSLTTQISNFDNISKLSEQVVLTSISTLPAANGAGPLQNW
UniProt O43614, whole entry H350A: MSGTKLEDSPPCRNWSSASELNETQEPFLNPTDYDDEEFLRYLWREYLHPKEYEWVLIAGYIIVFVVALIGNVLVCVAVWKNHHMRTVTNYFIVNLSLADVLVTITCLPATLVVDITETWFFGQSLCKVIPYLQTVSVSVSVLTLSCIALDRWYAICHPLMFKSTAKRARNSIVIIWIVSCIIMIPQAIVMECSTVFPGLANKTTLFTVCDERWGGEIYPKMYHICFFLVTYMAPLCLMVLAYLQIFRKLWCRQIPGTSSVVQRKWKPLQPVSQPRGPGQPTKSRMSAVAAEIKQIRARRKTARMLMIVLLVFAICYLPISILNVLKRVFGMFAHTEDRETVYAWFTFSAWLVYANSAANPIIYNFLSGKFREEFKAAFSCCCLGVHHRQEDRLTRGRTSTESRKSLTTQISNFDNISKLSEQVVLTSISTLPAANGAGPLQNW
UniProt O43614, whole entry Y354A: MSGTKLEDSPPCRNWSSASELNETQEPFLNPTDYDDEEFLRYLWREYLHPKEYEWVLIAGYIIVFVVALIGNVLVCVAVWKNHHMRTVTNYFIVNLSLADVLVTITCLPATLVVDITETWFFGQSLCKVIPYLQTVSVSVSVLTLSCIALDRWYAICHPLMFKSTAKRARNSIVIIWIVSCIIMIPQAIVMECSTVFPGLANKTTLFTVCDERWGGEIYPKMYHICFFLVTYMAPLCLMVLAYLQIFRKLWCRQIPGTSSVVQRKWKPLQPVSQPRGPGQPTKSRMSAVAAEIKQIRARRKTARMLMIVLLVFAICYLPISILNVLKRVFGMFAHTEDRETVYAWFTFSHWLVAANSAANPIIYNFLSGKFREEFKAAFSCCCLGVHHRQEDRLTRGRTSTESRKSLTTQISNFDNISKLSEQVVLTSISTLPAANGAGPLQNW
UniProt O43614, whole entry K327A: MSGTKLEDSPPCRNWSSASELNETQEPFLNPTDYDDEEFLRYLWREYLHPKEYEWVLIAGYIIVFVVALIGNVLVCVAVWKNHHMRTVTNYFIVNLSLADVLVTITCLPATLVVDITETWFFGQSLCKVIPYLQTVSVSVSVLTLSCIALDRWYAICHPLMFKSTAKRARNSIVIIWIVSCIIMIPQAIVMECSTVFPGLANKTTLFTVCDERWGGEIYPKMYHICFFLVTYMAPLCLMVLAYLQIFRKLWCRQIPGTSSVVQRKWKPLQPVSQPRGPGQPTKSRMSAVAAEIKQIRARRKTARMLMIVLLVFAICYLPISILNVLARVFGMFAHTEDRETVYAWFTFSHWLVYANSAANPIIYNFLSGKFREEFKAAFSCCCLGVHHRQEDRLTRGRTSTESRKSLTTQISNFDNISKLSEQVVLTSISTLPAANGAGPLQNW
UniProt O43614, whole entry W120A: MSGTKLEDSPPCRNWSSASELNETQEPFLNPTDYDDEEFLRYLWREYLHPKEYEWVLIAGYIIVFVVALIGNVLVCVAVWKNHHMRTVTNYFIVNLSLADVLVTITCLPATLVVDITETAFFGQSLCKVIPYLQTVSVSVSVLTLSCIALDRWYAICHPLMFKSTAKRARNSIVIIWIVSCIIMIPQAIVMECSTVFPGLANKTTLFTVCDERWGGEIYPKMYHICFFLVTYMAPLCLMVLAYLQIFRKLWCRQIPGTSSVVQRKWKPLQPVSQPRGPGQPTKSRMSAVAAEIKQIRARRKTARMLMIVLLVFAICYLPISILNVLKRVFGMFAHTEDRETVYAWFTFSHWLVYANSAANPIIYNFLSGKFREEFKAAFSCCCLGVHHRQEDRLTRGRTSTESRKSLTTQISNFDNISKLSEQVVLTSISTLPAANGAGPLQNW
UniProt O43614, whole entry F228A: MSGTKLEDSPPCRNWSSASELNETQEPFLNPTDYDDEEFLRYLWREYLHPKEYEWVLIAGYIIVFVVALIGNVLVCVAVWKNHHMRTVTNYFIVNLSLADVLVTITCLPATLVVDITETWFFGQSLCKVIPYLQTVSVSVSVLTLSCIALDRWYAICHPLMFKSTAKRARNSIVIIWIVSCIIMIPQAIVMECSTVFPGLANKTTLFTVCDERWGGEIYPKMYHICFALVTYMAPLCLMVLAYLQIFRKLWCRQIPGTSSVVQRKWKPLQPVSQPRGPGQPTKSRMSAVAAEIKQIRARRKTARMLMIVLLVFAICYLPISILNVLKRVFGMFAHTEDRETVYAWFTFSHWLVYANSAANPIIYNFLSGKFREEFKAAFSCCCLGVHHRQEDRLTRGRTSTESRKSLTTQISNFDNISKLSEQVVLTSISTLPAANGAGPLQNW
UniProt O43614, whole entry F227A: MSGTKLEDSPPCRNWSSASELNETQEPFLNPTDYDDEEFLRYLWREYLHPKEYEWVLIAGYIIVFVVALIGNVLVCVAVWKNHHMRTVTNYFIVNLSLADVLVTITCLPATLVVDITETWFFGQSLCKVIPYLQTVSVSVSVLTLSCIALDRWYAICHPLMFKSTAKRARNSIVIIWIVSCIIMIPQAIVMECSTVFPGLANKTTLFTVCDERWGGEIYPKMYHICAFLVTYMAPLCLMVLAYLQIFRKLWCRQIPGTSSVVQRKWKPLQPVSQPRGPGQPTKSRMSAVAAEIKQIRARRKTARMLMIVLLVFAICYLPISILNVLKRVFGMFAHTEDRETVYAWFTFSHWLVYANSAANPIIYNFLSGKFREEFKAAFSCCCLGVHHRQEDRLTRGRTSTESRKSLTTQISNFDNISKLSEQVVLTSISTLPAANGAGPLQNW
UniProt O43614, whole entry Y232A: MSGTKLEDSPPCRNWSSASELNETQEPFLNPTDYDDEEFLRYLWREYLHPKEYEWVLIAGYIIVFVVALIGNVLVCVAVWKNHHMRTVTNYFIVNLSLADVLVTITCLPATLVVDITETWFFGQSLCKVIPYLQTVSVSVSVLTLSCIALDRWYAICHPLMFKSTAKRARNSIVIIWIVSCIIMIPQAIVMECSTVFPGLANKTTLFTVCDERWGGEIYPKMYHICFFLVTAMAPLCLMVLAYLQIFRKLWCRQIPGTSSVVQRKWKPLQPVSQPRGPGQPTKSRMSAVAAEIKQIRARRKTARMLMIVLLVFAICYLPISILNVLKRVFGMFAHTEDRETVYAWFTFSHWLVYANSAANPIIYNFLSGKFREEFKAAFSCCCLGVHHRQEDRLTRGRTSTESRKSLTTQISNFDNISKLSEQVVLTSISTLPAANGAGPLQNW

This note sets out measurements from publication PMC9133036, “Molecular mechanism of the wake-promoting agent TAK-925” (Nature Communications, 2022).

What all share (assay type): cell-based
For one assay, the target named is T1, OX2R F346A (Homo sapiens, UniProt O43614, F346A).
T1 construct: expressed in transfected cells; host or cells: CHO-K1 stably expressing EA β-arrestin2
Put plainly: β-arrestin PathHunter assay, OX2R F346A. As to conditions: β-arrestin recruitment.

For the next assay, the target named is T2, OX2R V114A (Homo sapiens, UniProt O43614, V114A).
T2 construct: expressed in transfected cells; host or cells: CHO-K1 stably expressing EA β-arrestin2
Nature of the assay: β-arrestin PathHunter assay, OX2R V114A. As to conditions: β-arrestin recruitment.

In assay [1] the target is T3, human OX2R wild type (Homo sapiens, UniProt O43614). Put plainly: Inositol phosphate accumulation assay for Gq signaling, OX2R WT. Set-up: FLAG; expressed in transfected cells; host or cells: HEK293. As to conditions: IP accumulation.
A further assay has as its target T4, OX2R V353A (Homo sapiens, UniProt O43614, V353A).
T4 construct: expressed in transfected cells; host or cells: CHO-K1 cells stably expressing EA β-arrestin2 (DiscoveRX), transiently transfected with pCMV-ProLink OX2R
Put plainly: β-arrestin PathHunter assay, OX2R V353A. The note with it: β-arrestin recruitment.

A further assay deals with T5, OX2R Y317A (Homo sapiens, UniProt O43614, Y317A).
T5 construct: expressed in transfected cells; host or cells: CHO-K1 stably expressing EA β-arrestin2
Nature of the assay: β-arrestin PathHunter assay, OX2R Y317A. The note with it: β-arrestin recruitment.

A further assay has as its target T6, OX2R Q187A (Homo sapiens, UniProt O43614, Q187A).
T6 construct: expressed in transfected cells; host or cells: CHO-K1 stably expressing EA β-arrestin2
Nature of the assay: β-arrestin PathHunter assay, OX2R Q187A. The note with it: β-arrestin recruitment.

For another assay, the target named is OX2R Q134A (Homo sapiens, UniProt O43614, Q134A). Put plainly: β-arrestin PathHunter assay, OX2R Q134A. Set-up: expressed in transfected cells; host or cells: CHO-K1 stably expressing EA β-arrestin2. As to conditions: β-arrestin recruitment.
The target of a further assay is T7, OX2R H350A (Homo sapiens, UniProt O43614, H350A).
T7 construct: expressed in transfected cells; host or cells: CHO-K1 stably expressing EA β-arrestin2
Put plainly: β-arrestin PathHunter assay, OX2R H350A. The note with it: β-arrestin recruitment.

The next assay deals with T8, OX2R Y354A (Homo sapiens, UniProt O43614, Y354A).
T8 construct: expressed in transfected cells; host or cells: CHO-K1 cells stably expressing EA β-arrestin2 (DiscoveRX), transiently transfected with pCMV-ProLink OX2R
Put plainly: β-arrestin PathHunter assay, OX2R Y354A. As to conditions: β-arrestin recruitment.

A further assay deals with T9, OX2R K327A (Homo sapiens, UniProt O43614, K327A).
T9 construct: expressed in transfected cells; host or cells: CHO-K1 stably expressing EA β-arrestin2
Nature of the assay: β-arrestin PathHunter assay, OX2R K327A. As to conditions: β-arrestin recruitment.

The target in another assay is T10, OX2R W120A (Homo sapiens, UniProt O43614, W120A).
T10 construct: expressed in transfected cells; host or cells: CHO-K1 stably expressing EA β-arrestin2
Nature of the assay: β-arrestin PathHunter assay, OX2R W120A. As to conditions: β-arrestin recruitment.

The next assay deals with T11, OX2R F228A (Homo sapiens, UniProt O43614, F228A).
T11 construct: expressed in transfected cells; host or cells: CHO-K1 stably expressing EA β-arrestin2
Nature of the assay: β-arrestin PathHunter assay, OX2R F228A. The note with it: β-arrestin recruitment.

In a further assay the target is T12, OX2R F227A (Homo sapiens, UniProt O43614, F227A).
T12 construct: expressed in transfected cells; host or cells: CHO-K1 stably expressing EA β-arrestin2
Put plainly: β-arrestin PathHunter assay, OX2R F227A. The note with it: β-arrestin recruitment.

Another assay concerns the target T13, OX2R Y232A (Homo sapiens, UniProt O43614, Y232A).
T13 construct: expressed in transfected cells; host or cells: CHO-K1 stably expressing EA β-arrestin2
Put plainly: β-arrestin PathHunter assay, OX2R Y232A. The note with it: β-arrestin recruitment.

The next assay deals with T14, OX2R1-406 (Homo sapiens, UniProt O43614).
T14 construct: the receptor construct contained residues 1–406 of wild-type human OX2R; expressed in transfected cells; host or cells: HEK293
Nature of the assay: IP accumulation assay, C-terminally truncated OX2R1-406.

Assay [2] deals with T3, human OX2R wild type. Put plainly: β-arrestin PathHunter assay, OX2R WT. On the set-up: expressed in transfected cells; host or cells: CHO-K1 stably expressing EA β-arrestin2. The note with it: β-arrestin recruitment.
The target of the next assay is T15, OX2R R328A (Homo sapiens, UniProt O43614, R328A).
T15 construct: expressed in transfected cells; host or cells: CHO-K1 stably expressing EA β-arrestin2
Put plainly: β-arrestin PathHunter assay, OX2R R328A. The note with it: β-arrestin recruitment.

On to orexin B, for which the EC50 with OX2R F346A is 0.14 µM; with OX2R V114A, 0.15 µM; with human OX2R wild type [1], 0.0062 µM; in the assay with OX2R V353A, 0.024 µM; with OX2R Y317A it was 0.12 µM; with OX2R Q187A, 0.029 µM. In addition, the EC50 with OX2R Q134A was 0.28 µM; with OX2R H350A, 0.2 µM; in the assay with OX2R Y354A, 0.058 µM; with OX2R K327A, 0.12 µM; with OX2R W120A it was above 1 µM; with OX2R F228A, 0.013 µM. Moreover, the EC50 in the assay with OX2R F227A is above 1 µM; with OX2R Y232A it was 0.079 µM; in the assay with OX2R1-406, 0.0026 µM; in the assay with human OX2R wild type [2] it was 0.0041 µM; in the assay with OX2R R328A it was 0.59 µM. Moreover, the pEC50 with OX2R W120A and with OX2R F227A was below 6 each time.
